Laboratory results reported in ChEMBL document CHEMBL4419165, “Fibcd1 for the prevention and treatment of diseases” (2014).
The source made the active and inactive calls. The calls are words filed in the database; no cut-off is given here.

What was measured:
[1] = target: T1, Fibrinogen C domain-containing protein 1 (Homo sapiens) (UniProt Q8N539); test: Binding affinity to V5-His tagged FIBCD1 ecto-domain (54 to 461 residues) (unknown origin) assessed as reduction in binding between FIBCD1 and acetylated BSA at 50 mM by ELISA relative to control
T1 sequence (whole entry): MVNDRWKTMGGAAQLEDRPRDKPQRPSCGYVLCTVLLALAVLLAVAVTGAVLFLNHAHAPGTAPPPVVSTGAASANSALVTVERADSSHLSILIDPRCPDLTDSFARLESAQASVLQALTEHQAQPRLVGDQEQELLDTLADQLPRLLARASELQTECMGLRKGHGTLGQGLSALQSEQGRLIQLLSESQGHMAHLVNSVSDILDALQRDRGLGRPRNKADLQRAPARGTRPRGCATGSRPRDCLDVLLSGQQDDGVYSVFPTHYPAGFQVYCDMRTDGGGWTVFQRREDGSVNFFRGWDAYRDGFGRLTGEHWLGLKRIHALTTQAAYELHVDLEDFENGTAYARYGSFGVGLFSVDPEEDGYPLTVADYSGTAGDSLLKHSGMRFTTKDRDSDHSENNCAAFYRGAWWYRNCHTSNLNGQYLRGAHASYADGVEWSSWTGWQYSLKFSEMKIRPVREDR

[2] = target: T1, Fibrinogen C domain-containing protein 1 (Homo sapiens); test: Binding affinity to V5-His tagged FIBCD1 ecto-domain (54 to 461 residues) (unknown origin) expressed in HEK293 cells assessed as reduction in binding between FIBCD1 and acetylated BSA by ELISA; type: cell-based

inhibition [1] [%] | I50 [2] | SMILES
< 50 | inactive | N[C@H]1C(O)O[C@H](CO)[C@H](O)[C@@H]1O (stereo partly drawn)
< 50 | inactive | N[C@@H]1C(O)O[C@H](CO)[C@@H](O)[C@@H]1O (stereo partly drawn)
< 50 | inactive | N[C@H]1C(O)O[C@H](CO)[C@@H](O)[C@@H]1O (stereo partly drawn)
< 50 | inactive | C[C@H](N)C(=O)O
